In PubChem BioAssay AID2754 (The Scripps Research Institute Molecular Screening Center, 2010) one finds IC50 data, which are given here for two molecules.

In the assay the target is VIM-2 metallo-beta-lactamase (Pseudomonas aeruginosa) (UniProt Q932Y6). Put plainly: VIM-2 metallo-beta-lactamase inhibitor potency, dose response, biochemical, epi-absorbance, common IMP-1/VIM-2 hits (AID 2754). Particulars: purified VIM-2 enzyme, absorbance substrate hydrolysis.

Active and inactive are the calls of the source. The rule behind the calls is not given here.

Broadly, the IC50 is the point on the concentration scale where inhibition reaches its midpoint. Turning to `CCCCNc1ccc2c3c(cccc13)C(=O)N(CCCC)C2=O`, the IC50 entry is “inactive”.
With `CCN1C(=O)c2cccc3c(N)ccc(c23)C1=O` the figure was 8.24 µM.
